Experimental data: PMC10819019 (Pharmaceutics, 2024)

Assay: Stability assay of DPP-4 inhibitors after incubation with cysteine (nonenzymatic)
Conditions: 100 μM inhibitor, L-cysteine 100 mM, potassium phosphate buffer pH 7.4, 37 °C, 2 h, no enzyme source

Stability in the presence of L-cysteine (peak area vs control without L-cysteine): disappeared
SMILES: N#C[C@@H]1CCCN1C(=O)CNC12CC3CC(CC(O)(C3)C1)C2 [Vildagliptin, vildagliptin]
